# Hits are enriched below; roughly 2.3% of the tested compounds scored in any of these assays.
# Mito fusion yeast: mitochondrial division inhibition or fusion activation; S. cerevisiae fusion-defective mutant growth rescue, CellTiterGlo 48 h; Potency, µM (titrated, usually from 46.1 µM), for inactives: top-dose growth rescue (activation), actives largely listed as activators; actives 0.23% (n = 320,000); AID 485298; note: potency is the fitted concentration of half-maximal effect; % of control where 0% means no effect; nearly all actives have a fitted effect of over 45% in size
#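 Growth-rescue viability read-out: after 48 h at the non-permissive 37C in glycerol/ethanol YPEG, yeast mitochondrial fusion mutants are measured by CellTiterGlo luminescence; compounds (23 nl pinned per well) restoring growth score as division inhibitors or fusion activators.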
# Nrf2 inh: Nrf2 pathway inhibition. A549 ARE-Fluc reporter, luciferase luminescence, 18-24 h. Potency, µM (titrated, usually from 46 µM), for the others: at the highest dose activity change, negative = inhibition, usual class: inhibitors. actives 2.1% (n = 360,000). AID 504444; note: potency is the fitted concentration of half-maximal effect; % is set by controls: 0 for no effect and ±100 for the full control effect; nearly all actives have a fitted effect of over 60% in size
#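 Cells were seeded and rested 2 h, then exposed to compounds for 18-24 h. CellTiter-Fluor was read first as a viability measure. BugLite was added 15 min before the final luminescent read of ARE-luciferase activity in A549 cells.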
# Nrf2 ARE act: activators of Nrf2 (ARE) signaling. AREc32 ARE-luciferase reporter (MCF7-derived line), luminescence, 24 h. Potency, µM (doses to about 46.1 µM), for the others: at the top dose activation, hits mostly activators. actives 0.31% (n = 410,000). AID 624171; note: potency is the fitted concentration of half-maximal effect; % of control where 0% means no effect; nearly all actives have a fitted effect of over 65% in size
#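 Reporter line AREc32 (ARE-Fluc), seeded overnight in OPTI-MEM with 5% FBS; compound pin-transferred, 24 hr at 37 deg C, 5% CO2; luminescent read-out.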
# A549 tox: counter-screen for Nrf2 inhibitors: cytotoxicity in A549 cells | actives 0.16% (n = 390,000) | A549 ARE-Fluc cells, CellTiter-Fluor viability, 18-24 h | Potency, µM (titrated, usually from 46 µM), inactives show at the highest dose activity change, negative = cytotoxicity, most hits filed as inhibitors | AID 504648; note: potency is the fitted concentration of half-maximal effect; % is set by controls: 0 for no effect and ±100 for the full control effect
#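 A549 ARE-Fluc cells in 5% FBS OPTI-MEM, 5000 cells/well, rested 2 h then exposed to compounds in concentration-response for 18-24 h at 37 °C. Viability by CellTiter-Fluor fluorescence (Ex 405/Em 525) after 30 min; luciferase luminescence (BugLite, 15 min, RT) read afterwards.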
# GRP78 ERSR act: induces the endoplasmic reticulum stress response in human glioma cells. U87-MG GRP78 promoter luciferase reporter, 16 h. Potency, µM, for inactives: at the highest dose activation, hits mostly activators. actives 0.02% (n = 420,000); note: potency is the fitted concentration of half-maximal effect; series mostly up to about 76 µM; % of control where 0% means no effect; nearly all actives have a fitted effect of over 35% in size
#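 Stably transfected U87-MG human glioma cells carrying a GRP78-based luminescent sensor were seeded at 1000 cells/well, pin-dosed with compounds and incubated 16 h. Luciferase reagent was then added, and end-point luminescence was read after 10 min at room temperature.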
# miR-21 reporter: raises the signal of a miR-21 reporter | HeLa miR-21 FLuc reporter, luciferase, 48 h | Potency, µM (doses to about 38.3 µM), without a hit: at the top dose reporter change, positive = more light | 340,000 tested, under 10 active | AID 2288; active = well fitted rising curve with a large enough effect; inconclusive = small, poorly fitted or top-dose-only effect; inactive = no such curve, though single readings can be large or run the other way;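 note: % of control where 0% means no effect; miR-21 action dims this reporter so a rising signal means less miR-21 action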
#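 Luminescence from a firefly luciferase reporter carrying a miR-21 binding site downstream, stably expressed under a CMV promoter in HeLa cells that make miR-21 endogenously, reports miRNA modulation after 48 h compound exposure up to approximately 40uM final.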
# Starred values were filed as active, the others as inactive; ? = inconclusive; . = no result; [ ] = dose if it differs, or a comment. Calls come from the whole dose curve; as a rule, active = well fitted curve in the direction sought with a large enough effect; inconclusive = small, poorly fitted or top-dose-only effect, or another doubt; inactive = no such curve, though single readings can be large; an effect the other way counts as inactive or inconclusive.
SMILES,Mito fusion yeast,Nrf2 inh,Nrf2 ARE act,A549 tox,GRP78 ERSR act,miR-21 reporter
NCCCCCc1nnc(SCc2ccccc2Cl)o1,-7%,13µM*,-2%,?,-15%,25%
Cc1ccc(S(=O)(=O)CCC(=O)N2CCN(c3nc4c(C)c(C)ccc4s3)CC2)cc1,.,.,4%,2%,-1%,3%
Cc1cccc(NC(=S)/N=C(\N)Nc2nc(C)c3ccc(C)cc3n2)c1,-2%,15µM*,4%,?,-4%,22%
Cc1nn(-c2ccccc2)c(C)c1/C=N/NC(=O)c1cc(C23CC4CC(CC(C4)C2)C3)[nH]n1,?,13µM*,4%,?,-3%,-10%
Cc1nn(-c2ccccc2)c(C)c1/C=N/NC(=O)c1cc(-c2ccc(Cl)s2)[nH]n1,20%,10µM*,0%,-8%,-4%,13%
N#Cc1cccc(NC(=O)COC(=O)c2ccccc2Sc2ccccc2C#N)c1,6%,16%,4%,3%,1%,2%
O=C(Nc1nnc(-c2ccco2)o1)c1ccc2ccccc2c1,13µM*,-26%,5%,12%,4%,-10%
CC1CCCN(S(=O)(=O)c2ccc(C(=O)Nc3nnc(-c4ccccn4)o3)cc2)C1 (stereo not drawn),10%,13µM*,2%,0%,-2%,0%
CC1CCN(S(=O)(=O)c2ccc(C(=O)Nc3nnc(-c4ccco4)o3)cc2)CC1,-3%,8.2µM*,-1%,0%,-2%,24%
CS(=O)(=O)c1cccc(-c2nnc(NC(=O)c3ccc(S(=O)(=O)N4CCCC4)cc3)o2)c1,-10%,-15%,0%,-12%,-6%,.
O=C(Nc1nnc(-c2ccc(F)cc2)o1)c1ccc(S(=O)(=O)N2CCOCC2)cc1,2%,9.2µM*,2%,-19%,-8%,3%
COC(=O)c1ccc(N2CCN(C)CC2)c(NC(=O)c2sc3ccccc3c2Cl)c1,.,-14%,8%,2%,-3%,.
COc1cccc(-c2nnc(NC(=O)c3ccc(S(=O)(=O)N4CC(C)OC(C)C4)cc3)o2)c1 (stereo not drawn),4%,9.2µM*,0%,-23%,-6%,9%
O=C(Nc1nnc(-c2ccco2)o1)c1ccc([N+](=O)[O-])s1,0%,21µM*,2%,?,-3%,-5%
COc1ccccc1NC(=O)c1ccc(S(=O)(=O)N2CCC(C)CC2)cc1,-1%,8.2µM*,-1%,0%,-5%,9%

# Structures listed so far that contain a thiophene ring, fused or not, in the order listed:
SMILES,Mito fusion yeast,Nrf2 inh,Nrf2 ARE act,A549 tox,GRP78 ERSR act,miR-21 reporter
Cc1nn(-c2ccccc2)c(C)c1/C=N/NC(=O)c1cc(-c2ccc(Cl)s2)[nH]n1,20%,10µM*,0%,-8%,-4%,13%
COC(=O)c1ccc(N2CCN(C)CC2)c(NC(=O)c2sc3ccccc3c2Cl)c1,.,-14%,8%,2%,-3%,.
O=C(Nc1nnc(-c2ccco2)o1)c1ccc([N+](=O)[O-])s1,0%,21µM*,2%,?,-3%,-5%

# (further entries)
SMILES,Mito fusion yeast,Nrf2 inh,Nrf2 ARE act,A549 tox,GRP78 ERSR act,miR-21 reporter
CC1CN(S(=O)(=O)c2ccc(C(=O)Nc3nnc(-c4ccco4)o3)cc2)CC(C)O1 (stereo not drawn),-1%,?,0%,-2%,-3%,15%
CC(C)(C)SCCNC(=O)CN(c1ccc(F)cc1)S(C)(=O)=O,6.3µM*,2%,-1%,0%[1.84 µM],-6%,2%
CC(C)(C)SCCNC(=O)CN(c1ccc(F)c(Cl)c1)S(C)(=O)=O,2%,.,0%,1%,-3%,-8%
O=C1N=C2SCCN2/C1=C\c1ccc(Cl)cc1,3%,?,4%,-27%,-13%,0%
COc1cccc(Cn2nnc(C(=O)Nc3cc(C)ccc3C)c2N)c1,.,16µM*,4%,-4%,-1%,1%
CC(C)(O)C#Cc1ccc(CNC[C@H]2O[C@@H](n3cnc(C(N)=O)n3)[C@H](O)[C@@H]2O)s1,.,10%,-1%,-1%,-2%,.
Cc1ccc(NCC(=O)N/N=C\c2ccc([N+](=O)[O-])o2)cc1,-10%,21µM*,8%,?,-1%,28%
O=C(CNc1ccccc1)N/N=C/c1ccc([N+](=O)[O-])o1,-5%,18µM*,4%,?,-4%,29%
O=C(CNC(=O)c1ccccc1)N/N=C/c1ccc([N+](=O)[O-])o1,-7%,?,11%,?,-4%,27%
O=C(Cc1ccc2c(c1)OCO2)NN=Cc1ccc([N+](=O)[O-])o1,.,?,0%,-18%,-4%,.

# Source: PubChem BioAssay
